Screens: PubChem, several laboratories
MC4R barr agon – MC4R agonists recruiting beta-arrestin, primary screen, cell-based, luminescence, agonist arm of biased-ligand search; U2OS MC4R beta-arrestin complementation; percent of melanotan II response, DMSO zero; activation, % at 8.9 µM; hit rate 0.98% among 360,000; AID 540308, 2011;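 active = activation above a per-plate cutoff, the mean activation of sample wells on that plate plus 3 SD, cut at about 8% in these data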
MC4R antag cAMP – MC4R antagonists of cAMP signaling, primary screen, cell-based, TR-FRET, antagonist arm of biased-ligand search. Melanocortin receptor 4 (Homo sapiens), P32245. MC4R-expressing cells, MTII-stimulated cAMP, LANCE TR-FRET. inhibition, % at 6.5 µM. hit rate 0.48% among 360,000;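 active = inhibition above its plate's cutoff, the mean of tested wells on that plate plus 3 SD, cut at about 29% in these data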;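 note: 0% = Melanotan II alone and 100% = Melanotan II plus saturating MCL0020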
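Assay system: U2OS cells stably expressing human melanocortin 4 receptor (MC4R) / Dosing: 6.5 µM / Timing: compound 30 min, challenge 1 h, detection 1 h / Measured by: Eu-cAMP/anti-cAMP TR-FRET, emission 671 nm / Replicates: singlicate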
ARFGAP1 inhibitor – inhibitors of rat ARFGAP1 GAP activity, primary screen, biochemical, fluorescence polarization, GDP tracer; ADP-ribosylation factor GTPase-activating protein 1 (Rattus norvegicus), Q62848; Arfgap1-stimulated ARF1 GTP hydrolysis, GDP FP detection; inhibition, % at 16.5 µM; hit rate 0.26% among 360,000;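 active = inhibition above a per-plate limit, mean inhibition of low control wells plus 3 SD, cut at about 25% in these data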;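 note: 0% = DMSO wells with enzyme and 100% = wells lacking Arfgap1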
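Material: truncated rat Arfgap1 GAP domain; Incubation: compound-enzyme preincubation 20 min, reaction 120 min, detection 60 min, 25 °C; Read-out: percent inhibition of Arfgap1-stimulated GTP hydrolysis; Technique: FP, GDP Alexa 633 tracer displaced from anti-GDP antibody, 620/688 nm; Controls: No-Arfgap1 wells (100%) versus DMSO full-reaction wells (0%); Replication: single well per compound.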
UUG fidelity – modulators of yeast start codon fidelity, primary screen, whole organism, S. cerevisiae, single point, plate reader; S. cerevisiae UUG-firefly luciferase reporter, luminescence/redox ratio; activity score, % at 18.7 µM; 0.13% of 350,000 active; AID 602363, 2012;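 active = replicate mean at a twofold rise or more, about +100% in these data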;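 also: firefly luciferase made from a UUG start codon reports start codon fidelity; reporter light over untreated wells divided by growth signal over untreated wells; some hits fall short of that in this replicate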
NRP1-CendR mod – modulators of CendR peptide binding to NRP-1, primary screen, biochemical, fluorescence polarization, uHTS; Neuropilin-1 (Homo sapiens), O14786; FAM-RPARPAR peptide binding to NRP-1; inhibition, % at 25 µM; hit rate 0.85% among 360,000;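 active = inhibition or corrected inhibition above about 18%, plus a signal ratio from 0.5 to 1.5, limit read from the data, passing the limit was not always enough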
ASAP1 GAP inh – inhibitors of human ASAP1 ArfGAP activity, primary screen, biochemical, fluorescence polarization. Arf-GAP with SH3 domain, ANK repeat and PH domain-containing protein 1 (Homo sapiens), …. ASAP1-stimulated ARF1 GTP hydrolysis, GDP FP detection. inhibition, % at 16.5 µM. hit rate 0.19% among 360,000. AID 624377, 2012; in the data active = inhibition above about 25%;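 note: 0% = vehicle with enzyme and substrate and 100% = no enzyme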
MC4R barr conf – MC4R beta-arrestin agonists, retest, confirmation, cell-based, luminescence, U2OS | shares compounds with MC4R barr agon | activation, % at 8.9 µM | U2OS MC4R beta-arrestin recruitment; scaled DMSO 0%, Melanotan II 100% | AID 602192, 2012 | hit rate 31% among 2,400;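 active = mean activation across replicates above the hit cutoff set in the earlier primary screen, cut at about 8% in these data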
MOR-DOR barr ag – agonists of MOR-DOR heterodimerization, counter-screen for MC4R biased agonist project, cell-based, luminescence; shares compounds with MC4R barr agon; U2OS PathHunter beta-arrestin, beta-gal luminescence; percent of deltorphin B response, DMSO zero; activation, % at 9.2 µM; hit rate 5.8% among 2,400; AID 602194, 2012;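 active = mean activation across replicates exceeds the hit threshold derived in the earlier primary screen, cut at about 18% in these data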;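 note: 100% = deltorphin B at 0.9 µM final and 0% = DMSO alone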
Starred values were filed as active, the others as inactive; · = no result given. Sampled rows, rich in hits. Any-hit rate of the full collection: about 2.3%.

By UniProt entry, the sequences of proteins in these tests, tags left out. Residues count along the entry.
Melanocortin receptor 4 (Homo sapiens), P32245, UniProt P32245, whole entry, looked up: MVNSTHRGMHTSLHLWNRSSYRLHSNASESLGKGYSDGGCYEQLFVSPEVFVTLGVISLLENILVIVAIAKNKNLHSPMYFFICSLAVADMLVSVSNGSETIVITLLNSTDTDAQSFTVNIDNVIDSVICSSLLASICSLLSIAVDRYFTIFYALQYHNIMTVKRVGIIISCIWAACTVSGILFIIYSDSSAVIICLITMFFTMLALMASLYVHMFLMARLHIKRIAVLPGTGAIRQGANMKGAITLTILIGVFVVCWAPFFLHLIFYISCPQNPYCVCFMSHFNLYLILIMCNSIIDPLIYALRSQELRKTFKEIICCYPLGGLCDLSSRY
ADP-ribosylation factor GTPase-activating protein 1 (Rattus norvegicus), Q62848, UniProt Q62848, whole entry, looked up: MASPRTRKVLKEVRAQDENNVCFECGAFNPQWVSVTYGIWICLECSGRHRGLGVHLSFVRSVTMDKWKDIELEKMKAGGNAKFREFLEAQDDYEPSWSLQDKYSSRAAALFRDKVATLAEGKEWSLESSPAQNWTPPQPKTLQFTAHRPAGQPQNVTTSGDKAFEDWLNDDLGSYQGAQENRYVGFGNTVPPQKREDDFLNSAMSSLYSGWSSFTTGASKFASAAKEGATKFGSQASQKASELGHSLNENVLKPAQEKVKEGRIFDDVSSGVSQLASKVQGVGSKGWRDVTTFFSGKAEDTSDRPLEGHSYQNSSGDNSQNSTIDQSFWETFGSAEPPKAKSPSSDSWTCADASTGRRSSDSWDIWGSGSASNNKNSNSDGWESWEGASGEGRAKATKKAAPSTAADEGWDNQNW
ADP-ribosylation factor GTPase-activating protein 1 (Rattus norvegicus), Q62848, UniProt Q62848, 1-136 limits assumed: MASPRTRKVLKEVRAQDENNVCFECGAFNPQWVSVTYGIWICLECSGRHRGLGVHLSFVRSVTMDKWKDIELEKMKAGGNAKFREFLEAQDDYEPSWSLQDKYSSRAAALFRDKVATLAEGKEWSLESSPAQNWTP
Neuropilin-1 (Homo sapiens), O14786, UniProt O14786, whole entry, looked up: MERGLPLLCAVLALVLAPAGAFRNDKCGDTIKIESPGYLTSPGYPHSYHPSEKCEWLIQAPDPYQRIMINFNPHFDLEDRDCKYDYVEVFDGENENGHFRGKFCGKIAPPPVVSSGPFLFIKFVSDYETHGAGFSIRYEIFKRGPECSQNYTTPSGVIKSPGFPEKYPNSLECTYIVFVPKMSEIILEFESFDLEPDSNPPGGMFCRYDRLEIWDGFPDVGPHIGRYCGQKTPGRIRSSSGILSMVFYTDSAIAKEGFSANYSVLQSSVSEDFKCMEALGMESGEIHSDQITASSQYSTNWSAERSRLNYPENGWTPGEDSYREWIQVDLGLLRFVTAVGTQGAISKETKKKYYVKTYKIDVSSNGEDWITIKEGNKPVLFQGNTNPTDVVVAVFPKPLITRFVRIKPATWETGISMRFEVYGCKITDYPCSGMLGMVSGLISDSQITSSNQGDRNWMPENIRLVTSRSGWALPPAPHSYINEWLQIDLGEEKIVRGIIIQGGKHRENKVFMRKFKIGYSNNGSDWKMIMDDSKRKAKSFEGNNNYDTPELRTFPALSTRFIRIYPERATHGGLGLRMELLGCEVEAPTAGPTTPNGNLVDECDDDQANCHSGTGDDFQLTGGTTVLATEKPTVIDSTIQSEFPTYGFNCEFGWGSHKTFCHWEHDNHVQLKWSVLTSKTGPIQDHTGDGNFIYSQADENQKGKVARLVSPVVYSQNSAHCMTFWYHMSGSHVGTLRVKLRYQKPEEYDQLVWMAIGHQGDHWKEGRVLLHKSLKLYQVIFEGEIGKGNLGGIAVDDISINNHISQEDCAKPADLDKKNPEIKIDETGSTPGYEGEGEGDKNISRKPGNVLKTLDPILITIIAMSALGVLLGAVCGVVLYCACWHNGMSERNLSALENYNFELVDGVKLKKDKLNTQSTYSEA

Values run as follows: MC4R barr agon	MC4R antag cAMP	ARFGAP1 inhibitor	UUG fidelity	NRP1-CendR mod	ASAP1 GAP inh	MC4R barr conf	MOR-DOR barr ag
- Cc1cccc(-c2n[nH]c(=S)n2/N=C/c2ccc(C)s2)c1
    11.6*	5.0	2.1	-10.0	-9.2	-13.2	-0.5	4.1
- Cc1cccc(-c2n[nH]c(=S)n2/N=C/c2cccs2)c1
    -0.2	25.0	-2.2	-20.4	11.8	-0.6	·	·
- CC(=O)Nc1ccc(NC(=O)c2cc(-c3ccc(C)c(C)c3O)n[nH]2)cc1
    9.7*	-3.6	9.5	-12.8	1.4	15.4	4.2	2.3
- O=C(CSc1nnc(COc2ccc(Cl)cc2)n1Cc1ccco1)c1ccccc1F
    22.1*	3.2	3.1	-15.0	-5.2	-4.5	4.3	3.4
- Clc1ccc(OCc2nnc(SCc3nc4ccccc4[nH]3)n2Cc2ccco2)cc1
    -2.0	3.4	4.8	-33.3	-30.3	-5.7	·	·
- O=C(CSc1nc(CCC2CCCC2)nc2ccccc12)NCc1ccc2c(c1)OCO2
    19.6*	24.8	-13.3	-22.3	-6.0	-3.5	2.6	5.9
- CC(OC(=O)c1cc2sccc2n1C)C(=O)NCc1ccc2c(c1)OCO2 (stereo unspecified)
    13.0*	9.6	5.5	-20.1	-13.4	-10.2	-1.1	2.1
- CCN(CC)CCN(C(=O)CCS(=O)(=O)c1ccccc1)c1nc2c(C)cc(C)cc2s1
    12.0*	5.5	13.0	1.7	-4.0	2.3	3.6	6.1
- C=CCn1c(COc2cc(C)ccc2C(C)C)nnc1SCC(=O)c1c(N)n(C)c(=O)n(C)c1=O
    9.7*	7.2	-9.7	·	11.1	-0.1	2.9	3.7
- N#C[C@H]1[C@H](c2ccc(-c3cccc(F)c3)cc2)[C@@H](CO)N1S(=O)(=O)c1cccc(F)c1
    ·	·	·	-14.4	·	·	·	·

Full records as entered above.
C=CCn1c(COc2cc(C)ccc2C(C)C)nnc1SCC(=O)c1c(N)n(C)c(=O)n(C)c1=O is entered as MC4R barr agon = 9.7*; MC4R antag cAMP = 7.2; ARFGAP1 inhibitor = -9.7; UUG fidelity = ·; NRP1-CendR mod = 11.1; ASAP1 GAP inh = -0.1; MC4R barr conf = 2.9; MOR-DOR barr ag = 3.7
CC(=O)Nc1ccc(NC(=O)c2cc(-c3ccc(C)c(C)c3O)n[nH]2)cc1 is entered as MC4R barr agon = 9.7*; MC4R antag cAMP = -3.6; ARFGAP1 inhibitor = 9.5; UUG fidelity = -12.8; NRP1-CendR mod = 1.4; ASAP1 GAP inh = 15.4; MC4R barr conf = 4.2; MOR-DOR barr ag = 2.3
Clc1ccc(OCc2nnc(SCc3nc4ccccc4[nH]3)n2Cc2ccco2)cc1 is entered as MC4R barr agon = -2.0; MC4R antag cAMP = 3.4; ARFGAP1 inhibitor = 4.8; UUG fidelity = -33.3; NRP1-CendR mod = -30.3; ASAP1 GAP inh = -5.7; MC4R barr conf = ·; MOR-DOR barr ag = ·

Additional structures follow.
Values run as follows: MC4R barr agon	MC4R antag cAMP	ARFGAP1 inhibitor	UUG fidelity	NRP1-CendR mod	ASAP1 GAP inh	MC4R barr conf	MOR-DOR barr ag
- Cc1noc(C)c1NC(=O)N(C)C[C@H]1OCCCC[C@@H](C)Oc2ccc(NC(=O)NC3CCCCC3)cc2C(=O)N([C@@H](C)CO)C[C@H]1C
    ·	·	·	-2.6	·	·	·	·
- O=C(Nc1ccc(F)cc1)C1C(c2ccccc2)C1(Cl)Cl (stereo unspecified)
    14.7*	-1.9	20.2	·	1.4	23.4	0.5	10.6
- O=C(N[C@H]1CC[C@@H](CC(=O)N2CCOCC2)O[C@H]1CO)c1ccc2c(c1)OCO2
    ·	·	·	-13.0	·	·	·	·
- CCCN(C)C[C@@H]1Oc2cc(C#CC3CCCC3)ccc2S(=O)(=O)N([C@@H](C)CO)C[C@H]1C
    ·	·	·	-0.5	·	·	·	·
- O=C(NC1CCCCC1)C(c1cccs1)N(C(=O)C(F)(F)F)c1ccccc1 (stereo unspecified)
    27.1*	3.9	6.6	-5.7	8.8	2.6	4.7	6.5
- CC(C)c1ccc(NC(=O)COC(=O)/C=C/c2cccc(Br)c2)cc1
    11.3*	-1.7	-1.9	·	11.7	-6.9	4.8	2.7
- O=C(COC(=O)/C=C/c1cccc(Br)c1)Nc1ccc(Cl)cn1
    1.5	5.7	2.0	-11.2	7.3	4.9	·	·
- CO[C@H]1CN(C)C(=O)c2ccc(NS(=O)(=O)c3cccc(F)c3)cc2OC[C@H](C)N(Cc2cc(F)ccc2F)C[C@@H]1C
    ·	·	·	-11.3	·	·	·	·
- Nc1nccc(-c2cc(-c3ccc(Cl)cc3Cl)no2)n1
    0.1	6.7	1.7	-21.1	-15.5	-9.8	·	·
- Nc1c(-c2cccs2)cnn1-c1nc(-c2ccc(Cl)cc2Cl)cs1
    18.8*	-0.6	-1.3	-25.3	-3.0	2.2	21.2*	2.5

(listing goes on)
Values run as follows: MC4R barr agon	MC4R antag cAMP	ARFGAP1 inhibitor	UUG fidelity	NRP1-CendR mod	ASAP1 GAP inh	MC4R barr conf	MOR-DOR barr ag
- C[C@@H]1CN([C@H](C)CO)C(=O)Cc2cc(NC(=O)Cc3ccccc3)ccc2O[C@@H]1CN(C)C(=O)Nc1ccc2c(c1)OCO2
    ·	·	·	14.8	·	·	·	·
- CO[C@@H]1CN(C)C(=O)c2ccc(NC(=O)C3CCCCC3)cc2OC[C@@H](C)N(C(=O)c2ccccc2)C[C@H]1C
    ·	·	·	5.5	·	·	·	·
- COc1ccc(NC(=O)CC2C(=O)N(Cc3ccccc3)C(=S)N2CCN2CCOCC2)cc1 (stereo unspecified)
    -1.1	17.7	-4.3	-0.9	-6.0	19.3	·	·
- C=CCN1C(=O)C(CC(=O)Nc2ccc(OCCC)cc2)N(CCCN2CCN(Cc3ccccc3)CC2)C1=S (stereo unspecified)
    22.0*	7.9	2.2	·	5.2	-0.9	9.4*	21.7*
- CC(C)(C)C1CCc2onc(C(=O)Nc3ccc4c(c3)OCO4)c2C1 (stereo unspecified)
    11.6*	-2.6	8.9	-12.8	12.9	-19.1	5.1	4.9
- CC(C)(C)C1CCc2onc(C(=O)NC3CCCC3)c2C1 (stereo unspecified)
    3.9	-0.6	-1.7	0.2	1.5	1.9	·	·
- COc1cccc(NC(=O)N[C@@H]2CC[C@H](CC(=O)N3CCOCC3)O[C@H]2CO)c1
    ·	·	·	-1.8	·	·	·	·
- CCOC(=O)N1CCC(N2C(=O)c3ccc(C(=O)Nc4cccc(OC)c4)cc3C2=O)CC1
    12.1*	1.0	-3.6	-8.5	-11.2	-7.8	1.9	4.3
- CCOC(=O)N1CCC(N2C(=O)c3ccc(C(=O)O)cc3C2=O)CC1
    -0.2	9.7	7.3	-7.1	-1.0	-1.8	·	·
- C[C@@H]1CN([C@@H](C)CO)C(=O)c2cc(C#Cc3cccnc3)cnc2O[C@H]1CN(C)C
    ·	·	·	8.5	·	·	·	·

New compounds follow:
Values run as follows: MC4R barr agon	MC4R antag cAMP	ARFGAP1 inhibitor	UUG fidelity	NRP1-CendR mod	ASAP1 GAP inh	MC4R barr conf	MOR-DOR barr ag
- COc1ccc(O)c(-c2cc(C(F)(F)C(F)F)nc(-c3ccccc3)n2)c1
    14.0*	-1.7	6.7	-13.5	7.3	11.0	17.0*	1.4
- Oc1ccccc1-c1cc(C(F)(F)C(F)F)nc(-c2ccccc2)n1
    -0.7	4.3	-8.8	-9.6	-3.1	-3.8	·	·
- C=CCNC(=S)NNc1nc2c(c(=O)[nH]1)C1(CCCCC1)Cc1ccccc1-2
    14.8*	6.3	2.8	·	-5.5	4.4	-2.6	6.5
- CCO[C@H]1OC(C(=O)N2CCOCC2)=C[C@@H](C2CCCCC2)[C@@H]1CCCO
    ·	·	·	3.6	·	·	·	·
- COc1cc(COc2ccc(-c3nnco3)cc2)ccc1OC(F)F
    11.9*	2.1	5.2	-3.3	4.0	-3.5	6.6	8.3
- Cc1ccc(COc2ccc(-c3nnco3)cc2)cc1
    -0.8	4.2	-7.5	-26.8	4.1	5.1	·	·
